Where “and” joins values, the source holds several entries; their conditions need not be identical. Equal entries are not always repeated. Where two headings read alike, the source gives them in different places.
Experiments:
[1] = target: T1, human δ opioid receptor (Homo sapiens, UniProt P41143); conditions: read-out: [3H]Naltrindole (δ)
[2] = target: T2, human κ opioid receptor (Homo sapiens, UniProt P41145); conditions: read-out: [3H]U69,593 (κ)
[3] = target: T2, human κ opioid receptor; assay: biochemical; conditions: [3H]U69,593 (κ)
[4] = target: T1, human δ opioid receptor; assay: biochemical; conditions: [3H]Naltrindole (δ)

By UniProt entry, the sequences of proteins in these tests, tags left out. Where a name states a change or a piece, a line headed by the entry shows the natural chain unless it says otherwise.
UniProt P41145: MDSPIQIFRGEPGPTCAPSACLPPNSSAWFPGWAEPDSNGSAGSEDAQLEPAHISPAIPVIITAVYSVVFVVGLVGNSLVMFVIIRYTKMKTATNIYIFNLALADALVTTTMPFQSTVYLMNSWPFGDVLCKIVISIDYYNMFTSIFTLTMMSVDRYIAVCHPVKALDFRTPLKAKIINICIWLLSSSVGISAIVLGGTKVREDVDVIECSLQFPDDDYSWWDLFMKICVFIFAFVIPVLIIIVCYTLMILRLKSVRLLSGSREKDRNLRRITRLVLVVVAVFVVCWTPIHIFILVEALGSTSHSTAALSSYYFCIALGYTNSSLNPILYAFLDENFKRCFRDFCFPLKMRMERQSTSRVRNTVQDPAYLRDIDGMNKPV

Molecule: COc1ccc(-c2ccc(CCNC(=O)c3ccc4c(c3)[C@@]3(C)CCN(CC5CC5)C(C4)[C@@H]3C)cc2)cc1 [Example 48]
- Ki [1]: 0.18 ± 0.022 nM
- Ki [2]: 1.5 ± 0.1 nM

Molecule: CC1[C@@H]2Cc3ccc(C(=O)NCCc4ccc(Cc5ccccc5)cc4)cc3[C@@]1(C)CCN2CC1CC1 (mixture of isomers) [Example 27, (±)-3-(Cyclopropylmethyl)-1,2,3,4,5,6-hexahydro-cis-6,11-dimethyl-N-(4-benzylphenethyl)-2,6-methano-3-benzazocine-8-carboxamide]
- Ki [1]: 5.9 ± 0.7 nM
- Ki [2]: 1.6 ± 0.27 nM

Molecule: CC(CNC(=O)c1ccc2c(c1)[C@@]1(C)CCN(CC3CC3)C(C2)[C@@H]1C)c1ccc(-c2ccccc2)cc1 (stereo partly drawn) [Example 46]
- Ki [3]: 15 ± 1 nM
- Ki [4]: 12 ± 0.11 nM

Molecule: CC1[C@@H]2Cc3ccc(C(=O)NCCc4ccccc4Br)cc3[C@@]1(C)CCN2CC1CC1 (mixture of isomers) [Example 52, (±)-3-(Cyclopropylmethyl)-1,2,3,4,5,6-hexahydro-cis-6,11-dimethyl-N-(2-bromophenethyl)-2,6-methano-3-benzazocine-8-carboxamide]
- Ki [1]: 150 ± 6.2 nM
- Ki [2]: 19 ± 1.3 nM

Molecule: (±)-3-(Cyclopropylmethyl)-1,2,3,4,5,6-hexahydro-cis-6,11-dimethyl-N-(2-[1,1′-biphenyl]-4-ylethyl)-2,6-methano-3-benzazocine-8-carboxamide [Example 15]
- Ki [1]: 0.94 ± 0.045 nM
- Ki [2]: 0.33 ± 0.015 nM

Molecule: CC(Cc1ccc(-c2ccccc2)cc1)NC(=O)c1ccc2c(c1)[C@@]1(C)CCN(CC3CC3)C(C2)[C@@H]1C (stereo partly drawn) [Example 47]
- Ki [3]: 11 ± 0.24 nM
- Ki [4]: 7.6 ± 0.51 nM

Molecule: CC1[C@@H]2Cc3ccc(C(=O)NCCc4ccc5ccccc5c4)cc3[C@@]1(C)CCN2CC1CC1 (mixture of isomers) [Example 37, (±)-3-(Cyclopropylmethyl)-1,2,3,4,5,6-hexahydro-cis-6,11-dimethyl-N-(2-(naphthalen-2-yl)ethyl)-2,6-methano-3-benzazocine-8-carboxamide]
- Ki [1]: 0.9 ± 0.02 nM
- Ki [2]: 0.2 ± 0.056 nM

Molecule: CC(NC(=O)c1ccc2c(c1)C1(C)CCN(CC3CC3)C(C2)C1C)c1ccccc1 (single isomer, unassigned) [Example 67]
- Ki [3]: 130 ± 4 nM
- Ki [4]: > 10000 nM

Molecule: CC1[C@@H]2Cc3ccc(C(=O)NCCc4cccc(Oc5ccccc5)c4)cc3[C@@]1(C)CCN2CC1CC1 (mixture of isomers) [Example 34, (±)-3-(Cyclopropylmethyl)-1,2,3,4,5,6-hexahydro-cis-6,11-dimethyl-N-(3-phenoxyphenethyl)-2,6-methano-3-benzazocine-8-carboxamide]
- Ki [1]: 95 ± 6.7 nM
- Ki [2]: 13 ± 0.67 nM

Molecule: Cc1ccc(-c2ccc(CCNC(=O)c3ccc4c(c3)[C@@]3(C)CCN(CC5CC5)C(C4)[C@@H]3C)cc2)cc1 [Example 51]
- Ki [1]: 0.72 ± 0.027 nM
- Ki [2]: 3.3 ± 0.2 nM

Molecule: C[C@H]1C2Cc3ccc(C(=O)NCCc4ccc(-c5ccc(Cl)cc5)cc4)cc3[C@@]1(C)CCN2CC1CC1 [Example 49]
- Ki [1]: 0.71 ± 0.046 nM
- Ki [2]: 3.2 ± 0.67 nM

Molecule: O=C(NCCc1ccc(-c2ccccc2)cc1)c1ccc2c3c1OC1C(=O)CCC4(O)C(C2)N(CC2CC2)CCC314 (single isomer, unassigned; (-)) [Example 71, (−)-Q-naltrexone]
- Ki [3]: 22 ± 1.4 nM
- Ki [4]: 34 ± 4.1 nM

Molecule: O=C1CC[C@@]2(O)[C@H]3Cc4ccc(C(=O)NCCc5ccc(-c6ccccc6)cc5)c(O)c4[C@@]2(CCN3CC2CC2)C1 [Example 81, Q-naltrexone ring opened]
- Ki [3]: 1.9 ± 0.15 nM
- Ki [4]: 3.7 ± 0.2 nM

Molecule: C[C@H]1C2Cc3ccc(C(=O)NCCc4ccc(C(=O)NCCc5ccc(Br)cc5)cc4)cc3[C@@]1(C)CCN2CC1CC1 [Example 53]
- Ki [3]: 5 ± 0.36 nM
- Ki [4]: 30 ± 1.8 nM

Molecule: CC1C2Cc3ccc(C(=O)NCCc4cccnc4)cc3C1(C)CCN2CC1CC1 (racemic) [Example 69]
- Ki [3]: 97 ± 3.1 nM
- Ki [4]: 54 ± 1.3 nM

Molecule: CC1[C@@H]2Cc3ccc(C(=O)NCCc4cccc5ccccc45)cc3[C@@]1(C)CCN2CC1CC1 (mixture of isomers) [Example 40, (±)-3-(Cyclopropylmethyl)-1,2,3,4,5,6-hexahydro-cis-6,11-dimethyl-N-(2-(naphthalen-1-yl)ethyl)-2,6-methano-3-benzazocine-8-carboxamide]
- Ki [1]: 24 ± 1.2 nM

Molecule: O=C(NCCc1ccc(-c2ccccc2)cc1)c1ccc2c(c1)[C@@]13CCCC[C@@]1(O)[C@@H](C2)N(CC1CCC1)CC3 [Example 79, (−)-Q-butorphanol]
- Ki [3]: 3.9 ± 0.47 nM
- Ki [4]: 0.45 ± 0.039 nM

Molecule: CC1[C@@H]2Cc3ccc(C(=O)NCCCc4ccccc4)cc3[C@@]1(C)CCN2CC1CC1 (mixture of isomers) [Example 12, (±)-3-(Cyclopropylmethyl)-1,2,3,4,5,6-hexahydro-cis-6,11-dimethyl-N-(3-phenylpropyl)-2,6-methano-3-benzazocine-8-carboxamide]
- Ki [1]: 47 ± 1.6 nM
- Ki [2]: 3 ± 0.35 nM

Molecule: C[C@H]1C2Cc3ccc(C(=O)NCCCCc4ccccc4)cc3[C@@]1(C)CCN2CC1CC1 [Example 60]
- Ki [3]: 0.082 ± 0.0026 nM
- Ki [4]: 7.1 ± 0.39 nM

Molecule: CC[C@@]12CCN(CC3CC3)C(C(=O)c3ccc(C(=O)NCCc4ccc(-c5ccccc5)cc4)cc31)[C@@H]2C (mixture of isomers) [Example 21, (±)-3-(Cyclopropylmethyl)-6-ethyl-1,2,3,4,5,6-hexaahydro-cis-11-methyl-N-(2-[1,1′-biphenyl]-4-ylethyl)-1-oxo-2,6-methano-3-benzazocine-8-carboxamide]
- Ki [3]: 5.1 ± 0.18 nM
- Ki [4]: 13 ± 2.5 nM

Molecule: CC1[C@@H]2Cc3ccc(C(=O)NCCc4cccc(Br)c4)cc3[C@@]1(C)CCN2CC1CC1 (mixture of isomers) [Example 30, (±)-3-(Cyclopropylmethyl)-1,2,3,4,5,6-hexahydro-cis-6,11-dimethyl-N-(3-bromophenethyl)-2,6-methano-3-benzazocine-8-carboxamide]
- Ki [1]: 3.5 ± 0.19 nM

Molecule: CC(NC(=O)c1ccc2c(c1)C1(C)CCN(CC3CC3)C(C2)C1C)c1ccccc1 (single isomer, unassigned) [Example 68]
- Ki [3]: 64 ± 4.3 nM

Molecule: CC1[C@@H]2Cc3ccc(C(=O)NCCc4ccccc4Oc4ccccc4)cc3[C@@]1(C)CCN2CC1CC1 (mixture of isomers) [Example 35, (±)-3-(Cyclopropylmethyl)-1,2,3,4,5,6-hexahydro-cis-6,11-dimethyl-N-(2-phenoxyphenethyl)-2,6-methano-3-benzazocine-8-carboxamide]
- Ki [1]: 12 ± 1.9 nM
- Ki [2]: 0.85 ± 0.07 nM

Molecule: CC1[C@@H]2Cc3ccc(C(=O)NCCc4ccc(Oc5ccccc5)cc4)cc3[C@@]1(C)CCN2CC1CC1 (mixture of isomers) [Example 33, (±)-3-(Cyclopropylmethyl)-1,2,3,4,5,6-hexahydro-cis-6,11-dimethyl-N-(4-phenoxyphenethyl)-2,6-methano-3-benzazocine-8-carboxamide]
- Ki [1]: 3.2 ± 0.3 nM
- Ki [2]: 1.6 ± 0.3 nM

Molecule: CC1[C@@H]2Cc3ccc(C(=O)NCCc4ccccc4)cc3[C@@]1(C)CCN2CC1CC1 (mixture of isomers) [Example 11, (±)-3-(Cyclopropylmethyl)-1,2,3,4,5,6-hexahydro-cis-6,11-dimethyl-N-(2-phenylethyl)-2,6-methano-3-benzazocine-8-carboxamide]
- Ki [1]: 59 ± 6.6 nM
- Ki [2]: 1.7 ± 0.18 nM

Molecule: C[C@H]1C2Cc3ccc(C(=O)NCCc4ccc(-c5cccc(Cl)c5)cc4)cc3[C@@]1(C)CCN2CC1CC1 [Example 50]
- Ki [3]: 3.8 ± 0.13 nM
- Ki [4]: 1.3 ± 0.19 nM

Molecule: CC1C2C(=O)c3ccc(C(=O)NCCc4ccc(-c5ccccc5)cc4)cc3C1(C)CCN2CC1CC1 (stereo not drawn) [Example 20]
- Ki [3]: 1.3 ± 0.072 nM
- Ki [4]: 3.9 ± 1.4 nM

Molecule: (+)-3-(Cyclopropylmethyl)-1,2,3,4,5,6-hexahydro-cis-6,11-dimethyl-N-(2-[1,1′-biphenyl]-4-ylethyl)-2,6-methano-3-benzazocine-8-carboxamide [Example 17]
- Ki [2]: 11 nM and 8.5 nM

Molecule: CC1C2Cc3ccc(C(=O)NCCCCCc4ccccc4)cc3C1(C)CCN2CC1CC1 (racemic) [Example 61]
- Ki [3]: 1.5 ± 0.1 nM
- Ki [4]: 7.9 ± 0.12 nM

— patent publication US8026252B2 (priority 2005, dated 2011)
